# Laboratory results: patent publication US8440677B2, “Atropisomers of 2-purinyl-3-tolyl-quinazolinone derivatives and methods of use” (Gilead Calistoga LLC, priority 2009, dated 2013)
# Experiment: in vivo
# Settings: female, Sprague Dawley, rat, plasma, iv, 1.5 mg/kg, female SD rats, single bolus i.v.
smiles,measurement,setting,value
"Cc1ccccc1-n1c(Cn2cnc3c(N)ncnc32)nc2cccc(C)c2c1=O (single isomer, unassigned) [Compound 1(R), 2-((6-amino-9H-purin-9-yl)methyl)-5-methyl-3-o-tolylquinazolin-4(3H)-one]",AUC,AUCall,1010 ± 55 ng·h/mL
same,clearance,CL,24.6 mL/min/kg
same,half-life,T½,7 ± 1.1 h
same,Vd,Vz (volume of the terminal phase),14.8 L/kg
